Experiment: DIFI-log D: octanol-impregnated PVDF membrane (DIFI-tubes) / buffer distribution, UV readout
Conditions: 1 μl octanol on 0,45 μm PVDF membrane / 1600 μl 50 mM TAPSO pH 7.4, shaken 2 h, UV 250-450 nm, three determinations

For Imipramine, the “DIFI-log D” value was 2.66.
